Test results reported in patent US20090318346A1, “BIVALENT ErbB LIGAND BINDING MOLECULES AND METHODS FOR THEIR PREPARATION AND USE” (Targeted Molecular Diagnostics, priority 2006, published 2009).

Amino acid sequences for entries named in this document (tags omitted). Residues count along the entry.
UniProt P01133, 971-1023 limits assumed, species assumed: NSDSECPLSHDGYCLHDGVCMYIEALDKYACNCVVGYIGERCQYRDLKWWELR

What was measured:
EGF = EGF (Homo sapiens, UniProt P01133); assay: Cross-linking of hot EGF to traps (BS3); format: binding; conditions: for interference of cold NDF with binding of EGF: excess unlabeled NDF
Experimental: FIG. 6: Cross-linking of hot EGF to traps. Bivalent and monovalent traps were incubated with hot EGF, and with/without excess unlabeled EGF or NDF, followed by cross-linking molecule BS3. Bands shown are either the bivalent or monovalent traps cross-linked to hot EGF. As expected, all bivalent traps bind EGF, while only the ErbB1 monovalent trap binds EGF. Addition of cold EGF competes away the binding of hot EGF in all traps as expected. […] Constructs were prepared as described in Example 1.

BT474 cells = BT474 cells cultured in conditioned medium from 293T cells expressing trap constructs; format: cell-based; conditions: conditioned medium diluted 1:1 with fresh medium, 48 hrs
Experimental: FIG. 5: To test the functionality of the traps, conditioned medium from the 293T cells was collected, filtered and diluted 1:1 with fresh medium. This diluted, conditioned medium was then used to culture BT474 cells. After 48 hrs, the cells were fixed and stained with a solution of 1% methylene blue in 50% methanol. BT474 cells were cultured in medium from the trap constructs as follow: 1. pEF-IRES-P (control), 2. pEF-ECD13-IRES-P, 3. pEF-ECD14-IRES-P, 4. pEF-ECD3-IRES-P (single trap), 5. pEF-ECD31-IRES-P and 6. pEF-ECD41-IRES-P abbreviations for constructs are defined above in FIG. 3.
To test the functionality of the binding molecules, conditioned medium from the 293T cells was collected, filtered and used to culture BT474 cells.

Substance | interference of cold NDF with binding of EGF (EGF) | also measured
ErbB3-ErbB1: double trap: ErbB3 ectodomain portion amino terminal, (Gly4Ser)3 linker, ErbB1 ectodomain portion carboxy terminal, His tag | not | 
ErbB4-ErbB1: double trap: ErbB4 ectodomain portion amino terminal, (Gly4Ser)3 linker, ErbB1 ectodomain portion carboxy terminal, His tag | not | 
pEF-ECD14-IRES-P: double trap: ErbB1 ectodomain portion amino terminal, (Gly4Ser)3 linker, ErbB4 ectodomain portion (to L496) carboxy terminal, His tag |  | cell number (BT474 cells): significant reduction in cell number
ErbB1 monovalent trap: monovalent trap containing the ErbB1 ligand binding ectodomain portion |  | binding of hot EGF (cross-linked band) (EGF; hot EGF, cross-linker BS3): binds EGF
ErbB1-ErbB3: double trap: ErbB1 ectodomain portion (to V500) amino terminal, (Gly4Ser)3 linker, ErbB3 ectodomain portion (to L499), TEV site, His tag | seemed to interfere with the binding of EGF | 
